# According to article PMC10526228:
# Tests used:
# Experiment in all cases: SPR; cytokine immobilised by amine coupling on a ProteOn GLH chip (ProteOn XPR36); S100A6 as analyte, 63 nM–8 µM, 300 s; 25 °C; 10 mM HEPES, 150 mM NaCl, 1 mM CaCl2, 0.05% Tween 20, pH 7.4; heterogeneous ligand model (single-site scheme for IL-2)
# [1] = biological target: stem cell factor, soluble form (human) (UniProt P21583)
# [2] = biological target: granulocyte colony-stimulating factor (human) (UniProt P09919)
# [3] = biological target: interleukin-9 (human) (UniProt P15248)
# [4] = biological target: interleukin-27 (human)
# [5] = biological target: leptin (human) (UniProt P41159)
# [6] = biological target: interferon-ω1 (human) (UniProt P05000)
# [7] = biological target: interleukin-20 (human) (UniProt Q9NYY1)
# [8] = biological target: interleukin-5 (human) (UniProt P05113)
# [9] = biological target: interleukin-13 (human) (UniProt P35225)
# [10] = biological target: interleukin-3 (human) (UniProt P08700)
# [11] = biological target: interleukin-15 (human) (UniProt P40933)
# [12] = biological target: Fms-related tyrosine kinase 3 ligand (human) (UniProt P49771)
substance,measurement,setting,value
S100A6 protein (from UniProt P06703 1-90) (natural protein),"Kd1 (KD, ligand population 1)",[1],0.00872 µM
same,"Kd2 (KD, ligand population 2)",[1],1.9 µM
same,"kd1 (koff, ligand population 1)",[1],0.000257 s⁻¹
same,"kd2 (koff, ligand population 2)",[1],0.00451 s⁻¹
same,"Kd1 (KD, ligand population 1)",[2],0.00391 µM
same,"Kd2 (KD, ligand population 2)",[2],1.68 µM
same,"kd1 (koff, ligand population 1)",[2],0.000772 s⁻¹
same,"kd2 (koff, ligand population 2)",[2],0.0104 s⁻¹
same,"Kd1 (KD, ligand population 1)",[3],0.169 µM
same,"Kd2 (KD, ligand population 2)",[3],0.271 µM
same,"kd1 (koff, ligand population 1)",[3],0.00597 s⁻¹
same,"kd2 (koff, ligand population 2)",[3],0.00585 s⁻¹
same,"Kd1 (KD, ligand population 1)",[4],1.16 µM
same,"Kd2 (KD, ligand population 2)",[4],2.8 µM
same,"kd1 (koff, ligand population 1)",[4],0.000961 s⁻¹
same,"kd2 (koff, ligand population 2)",[4],0.0147 s⁻¹
same,"Kd1 (KD, ligand population 1)",[5],0.325 µM
same,"Kd2 (KD, ligand population 2)",[5],0.385 µM
same,"kd1 (koff, ligand population 1)",[5],0.00318 s⁻¹
same,"kd2 (koff, ligand population 2)",[5],0.000287 s⁻¹
same,"Kd1 (KD, ligand population 1)",[6],0.228 µM
same,"Kd2 (KD, ligand population 2)",[6],1.11 µM
same,"kd1 (koff, ligand population 1)",[6],0.000471 s⁻¹
same,"kd2 (koff, ligand population 2)",[6],0.0129 s⁻¹
same,"Kd1 (KD, ligand population 1)",[7],0.0451 µM
same,"Kd2 (KD, ligand population 2)",[7],0.385 µM
same,"kd1 (koff, ligand population 1)",[7],0.000308 s⁻¹
same,"kd2 (koff, ligand population 2)",[7],0.00914 s⁻¹
same,"Kd1 (KD, ligand population 1)",[8],0.0116 µM
same,"Kd2 (KD, ligand population 2)",[8],0.0323 µM
same,"kd1 (koff, ligand population 1)",[8],0.000247 s⁻¹
same,"kd2 (koff, ligand population 2)",[8],0.00507 s⁻¹
same,"Kd1 (KD, ligand population 1)",[9],0.197 µM
same,"Kd2 (KD, ligand population 2)",[9],1.91 µM
same,"kd1 (koff, ligand population 1)",[9],0.000264 s⁻¹
same,"kd2 (koff, ligand population 2)",[9],0.0136 s⁻¹
same,"Kd2 (KD, ligand population 2)",[10],0.402 µM
same,"kd1 (koff, ligand population 1)",[10],0.000271 s⁻¹
same,"kd2 (koff, ligand population 2)",[10],0.00728 s⁻¹
same,"Kd1 (KD, ligand population 1)",[11],0.057 µM
same,"Kd2 (KD, ligand population 2)",[11],0.215 µM
same,"kd1 (koff, ligand population 1)",[11],0.000162 s⁻¹
same,"kd2 (koff, ligand population 2)",[11],0.00629 s⁻¹
same,"Kd1 (KD, ligand population 1)",[12],0.122 µM
same,"Kd2 (KD, ligand population 2)",[12],0.125 µM
same,"kd1 (koff, ligand population 1)",[12],0.000883 s⁻¹
same,"kd2 (koff, ligand population 2)",[12],0.000832 s⁻¹
